Here are results for 55 molecules from patent publication US20260226034A1 (The Rockefeller University, priority 2023, published 2026).

This assay deals with SARS-CoV-2 (strain USA-WA1/2020). The assay can be described thus: SARS-CoV-2/Huh7.5 screening assay (nucleocapsid immunostaining, percentage of infected cells). The settings on record: Huh7.5 cells, SARS-CoV-2 infection, 24 h.

Turning to `Cc1c(S(=O)(=O)c2cc(F)c3[nH]ncc3c2)cc(C(=O)N[C@@H](C)c2cccc3cnn(C4CC4)c23)n1C` (single isomer, unassigned) [B.87], the midpoint of inhibition, the IC50, lay at 280 nM. Under `Cc1cc(S(=O)(=O)c2cc(C(=O)NCc3c(F)ccc4occc34)n(C)c2C)cc2cn[nH]c12` [A.1, N-[(5-fluorobenzofuran-4-yl)methyl]-1,5-dimethyl-4-[(7-methyl-1H-indazol-5-yl)sulfonyl]pyrrole-2-carboxamide] stands 5 nM; under `Cc1c(S(=O)(=O)c2ccc3[nH]ncc3c2)cc(C(=O)NCc2c(F)ccc3occc23)n1C` [A.2], 17 nM; under `Cc1c(S(=O)(=O)c2ccc3[nH]ncc3c2)cc(C(=O)NCc2cccc3cnn(C)c23)n1C` [A.3], 68 nM. Under `Cc1c(S(=O)(=O)c2ccc3c(cnn3C)c2)cc(C(=O)NCc2c(F)ccc3ncn(C4CC4)c23)n1C` [A.4, N-[(3-cyclopropyl-5-fluoro-benzimidazol-4-yl)methyl]-1,5-dimethyl-4-(1-methylindazol-5-yl)sulfonyl-pyrrole-2-carboxamide] stands 76 nM. Under `Cc1c(S(=O)(=O)c2ccc3[nH]ncc3c2)cc(C(=O)NCc2cccc3cnn(C4CC4)c23)n1C` [A.5] stands 210 nM; under `Cc1c(S(=O)(=O)c2cccc(C#N)c2)cc(C(=O)NCc2cccc3cnn(C)c23)n1C` [A.6, 4-(3-cyanophenyl)sulfonyl-1,5-dimethyl-N-[(1-methylindazol-7-yl)methyl]pyrrole-2-carboxamide], 230 nM; under `Cc1c(S(=O)(=O)c2ccc3occc3c2)cc(C(=O)NCc2cccc3cnn(C)c23)n1C` [A.8], 490 nM. `Cc1c(S(=O)(=O)c2ccc3[nH]ncc3c2)cc(C(=O)N[C@@H]2CCN(c3ncc(F)cn3)C2)n1C` [A.34, N-[(3R)-1-(5-fluoropyrimidin-2-yl)pyrrolidin-3-yl]-4-(1H-indazol-5-ylsulfonyl)-1,5-dimethyl-pyrrole-2-carboxamide]: the IC50 – broadly, the concentration that inhibits the measured activity by half – stood at 21 nM. Under `Cc1c(S(=O)(=O)c2ccc3[nH]ncc3c2)cc(C(=O)NC2CCN(c3ncc(F)cn3)CC2)n1C` [A.35] stands 480 nM; under `Cc1c(S(=O)(=O)c2ccc3[nH]ncc3c2)cc(C(=O)N[C@@H]2CCN(c3ncccc3C#N)C2)n1C` [A.37], 58 nM. Under `Cc1c(S(=O)(=O)c2ccc3[nH]ncc3c2)cc(C(=O)NC2CN(c3ncc(F)cn3)C[C@@H]2F)n1C` (stereo partly shown) [A.46] stands 80 nM.

`Cc1c(S(=O)(=O)c2ccc3[nH]ncc3c2)cc(C(=O)N[C@@H]2CCN(c3ncc(F)cc3F)C2)n1C` [A.54] yielded an IC50 of 3 nM. In turn, `Cc1c(S(=O)(=O)c2ccc3[nH]ncc3c2)cc(C(=O)N[C@@H]2CCN(c3cccc4ccnn34)C2)n1C` [A.55] registered an IC50 of 430 nM.

`Cc1c(S(=O)(=O)c2ccc3[nH]ncc3c2)cc(C(=O)N[C@@H]2CCN(c3ccc(C#N)cc3)C2)n1C` [A.57] displayed an IC50 of 180 nM. For the molecule `Cc1c(S(=O)(=O)c2ccc3[nH]ncc3c2)cc(C(=O)N[C@@H]2CCN(c3cccn4nccc34)C2)n1C` [A.59], 210 nM corresponded to half-maximal inhibition (IC50).

For `Cc1c(S(=O)(=O)c2ccc3[nH]ncc3c2)cc(C(=O)N[C@@H]2CCN(c3ccn4nccc4c3)C2)n1C` [A.60], the IC50 amounted to 350 nM. Under `Cc1c(S(=O)(=O)c2ccc3[nH]ncc3c2)cc(C(=O)N[C@@H]2CCN(c3cccc4c3cnn4C)C2)n1C` [A.61] stands 120 nM. Under `Cc1c(S(=O)(=O)c2ccc3[nH]ncc3c2)cc(C(=O)N[C@@H]2CCN(c3nccc(C(F)(F)F)n3)C2)n1C` [A.66] stands 120 nM; under `Cc1c(S(=O)(=O)c2ccc3[nH]ncc3c2)cc(C(=O)N[C@@H]2CCN(c3ccc(C#N)cn3)C2)n1C` [A.72], 110 nM; under `Cc1c(S(=O)(=O)c2ccc3[nH]ncc3c2)cc(C(=O)N[C@@H]2CCN(c3cncnc3)C2)n1C` [A.73], 93 nM.

With `Cc1c(S(=O)(=O)c2ccc3[nH]ncc3c2)cc(C(=O)N[C@@H]2CCN(c3cc(C#N)ccn3)C2)n1C` [A.79], the IC50 came to 400 nM. Under `Cc1c(S(=O)(=O)c2ccc3[nH]ncc3c2)cc(C(=O)N[C@@H]2CCN(c3ccc(F)cc3C#N)C2)n1C` [A.82] stands 71 nM. Regarding `COc1ccc(N2CC[C@@H](NC(=O)c3cc(S(=O)(=O)c4ccc5[nH]ncc5c4)c(C)n3C)C2)nn1` [A.88], the IC50 turned out to be 350 nM. For the molecule `Cc1c(S(=O)(=O)c2ccc3[nH]ncc3c2)cc(C(=O)N[C@@H]2CCN(c3ncc(F)cn3)C2)n1CCO` [A.90], the IC50 came to 350 nM. Under `Cc1c(S(=O)(=O)c2ccc3[nH]ncc3c2)cc(C(=O)N[C@@H]2CCN(c3cnccc3C#N)C2)n1C` [A.95] stands 100 nM; under `Cc1c(S(=O)(=O)c2cccc(C#N)c2)cc(C(=O)NCc2c(F)ccc3cnn(C)c23)n1C` [B.2], 52 nM; under `Cc1c(S(=O)(=O)c2ccc3[nH]nc(F)c3c2)cc(C(=O)NCc2cccc3cnn(C)c23)n1C` [B.12], 38 nM. Under `Cc1c(S(=O)(=O)c2ccc3[nH]ncc3c2)cc(C(=O)NCc2cccc3c2N(C)C(=O)C3)n1C` [B.13] stands 56 nM. Under `Cc1c(S(=O)(=O)c2ccc3[nH]ncc3c2)cc(C(=O)NCc2c(F)ccc3cnn(C4CC4)c23)n1C` [B.16] stands 2 nM; under `Cc1c(S(=O)(=O)c2ccc3[nH]ncc3c2)cc(C(=O)NCc2c(F)ccc3ncn(C4CC4)c23)n1C` [B.18], 1.2 nM. The molecule `Cc1c(S(=O)(=O)c2ccc3[nH]ncc3c2)cc(C(=O)NCc2c(F)cccc2F)n1C` [B.22] came in with an IC50 of 8.7 nM. Under `Cc1c(S(=O)(=O)c2ccc3[nH]ncc3c2)cc(C(=O)NCc2nccc3cnn(C)c23)n1C` [B.24] stands 287 nM; under `Cc1c(S(=O)(=O)c2ccc3[nH]ncc3c2)cc(C(=O)NCc2cccc3c2CCC(=O)N3C)n1C` [B.25], 57 nM. Molecule `Cc1cc(S(=O)(=O)c2cc(C(=O)NCc3c(F)ccc4ncn(C5CC5)c34)n(C)c2C)cc2cn[nH]c12` [B.27] displayed an IC50 of 26 nM. Under `Cc1c(S(=O)(=O)c2ccc3[nH]ncc3c2)cc(C(=O)NCc2cccc3c2N(C)C(=O)C32CC2)n1C` [B.32] stands 33 nM; under `Cc1c(S(=O)(=O)c2ccc3[nH]ncc3c2)cc(C(=O)NCc2cccc3c2ccc(=O)n3C)n1C` [B.33], 260 nM; under `Cc1c(S(=O)(=O)c2ccc3[nH]ncc3c2)cc(C(=O)NCc2cccc3nnn(C)c23)n1C` [B.34], 64 nM. Under `Cc1c(S(=O)(=O)c2ccc3[nH]ncc3c2)cc(C(=O)NCc2c(F)ccc3nnn(C)c23)n1C` [B.43] stands 6.4 nM; under `Cc1c(S(=O)(=O)c2ccc3[nH]ncc3c2)cc(C(=O)NCc2cncc3cnn(C)c23)n1C` [B.49], 57 nM; under `Cc1c(S(=O)(=O)c2cc(Cl)c3[nH]ncc3c2)cc(C(=O)NCc2cccc3cnn(C4CC4)c23)n1C` [B.51], 13 nM.

Consider `Cc1c(S(=O)(=O)c2ccc3[nH]ncc3c2)cc(C(=O)NCc2c(F)ccc3c2N(C)C(=O)C3)n1C` [B.52], for which the IC50 amounted to 8.2 nM. Under `Cc1c(S(=O)(=O)c2cc(F)c3[nH]ncc3c2)cc(C(=O)NCc2c(F)ccc3cnn(C4CC4)c23)n1C` [B.63] stands 6.8 nM; under `Cc1c(S(=O)(=O)c2ccc3[nH]ncc3c2)cc(C(=O)NCc2cccc3nnn(C4CC4)c23)n1C` [B.66], 150 nM; under `Cc1c(S(=O)(=O)c2ccc3[nH]ncc3c2)cc(C(=O)NCc2c(F)ccc3nnn(C4CC4)c23)n1C` [B.81], 13 nM. Under `Cc1c(S(=O)(=O)c2cc(F)c3[nH]ncc3c2)cc(C(=O)NCc2c(F)ccc3cnn(C4CC4)c23)n1CCO` [B.89] stands 62 nM; under `Cc1c(S(=O)(=O)c2cc(Cl)c3[nH]ncc3c2)cc(C(=O)NCc2ccnn2C)n1C` [B.134], 350 nM. Molecule `Cc1c(S(=O)(=O)c2ccc3c(=O)[nH]ccc3c2)cc(C(=O)NCc2c(F)ccc3cnn(C4CC4)c23)n1C` [B.136] yielded an IC50 of 84 nM.

As to `Cc1c(S(=O)(=O)c2ccc3[nH]ncc3c2)cc(C(=O)NCc2c(Cl)cnn2C)n1C` [B.142], the IC50 was determined as 190 nM.

In turn, `Cc1c(S(=O)(=O)c2ccc3[nH]ncc3c2Cl)cc(C(=O)NCc2c(F)ccc3c2N(C)C(=O)C32CC2)n1C` [B.143] came in with an IC50 of 24 nM. Under `Cc1c(S(=O)(=O)c2ccc3[nH]ncc3c2)cc(C(=O)NCc2c(F)ccc3c2N(C)C(=O)C32CC2)n1C` [B.145] stands 5.6 nM; under `O=C(O)CCn1ncc2ccc(F)c(CNC(=O)c3cc(S(=O)(=O)c4cc(Cl)c5[nH]ncc5c4)c4n3CCC4)c21` [B.151], 250 nM; under `Cc1c(S(=O)(=O)c2cc(Cl)c3[nH]ncc3c2)cc(C(=O)NCc2c(F)ccc3nnn(C4CC4)c23)n1C` [B.153], 4.2 nM. For `Cc1c(S(=O)(=O)c2ccc3[nH]ncc3c2)cc(C(=O)NCc2c(Cl)ccc(=O)n2C)n1C` [B.174], the IC50 was 100 nM. Under `Cc1c(S(=O)(=O)c2ccc3[nH]ncc3c2)cc(C(=O)NCc2c(F)ccc(=O)n2C)n1C` [B.179] stands 220 nM.
